Antibody variant affinities, Ab-14 light chain, assay B

The target is the same throughout: PDVDLGDISGINAS, from the HR2 region of SARS-CoV-2 spike.

Parent scFv Ab-14: VH joined to VL by three GGGGS repeats. Changes lie in the light chain CDRs alone.
VH: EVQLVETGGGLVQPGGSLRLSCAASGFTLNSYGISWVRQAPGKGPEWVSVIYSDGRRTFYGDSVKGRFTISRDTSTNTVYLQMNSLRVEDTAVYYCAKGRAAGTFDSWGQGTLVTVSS
VL: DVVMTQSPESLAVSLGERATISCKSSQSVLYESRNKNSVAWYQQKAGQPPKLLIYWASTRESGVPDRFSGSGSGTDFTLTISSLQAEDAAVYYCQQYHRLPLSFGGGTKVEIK

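The parent was found by panning a naive human phage display library on the peptide. These sequences belong to a second round, designed from the earlier measurements on random variants of the parent. Their group label is 14L_Ctrl (Ctrl: baseline library sampled from a position-specific scoring matrix, with some repeated check sequences). In AlphaSeq, yeast of one mating type display the scFv and yeast of the other type display the target. Binding brings cells together so that they mate, and sequencing counts the barcode pairs among the diploids. Scores were corrected for input abundance and mapped to Kd with protein pairs of known affinity run in the same pool. There are six technical replicates.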

Changes read parent residue, position, new residue, counted from the first residue of the VL shown. Affinities are written as log10 Kd with Kd in nM; a lower number is a better binder. An entry "n.d." has no value in the source: the pair was not observed among the diploids in that replicate. This suggests poor binding but is not conclusive.

changes	log10 Kd (nM) by replicate	signal with controls
S25A/Q27G/V29D/R34T/W56D	-0.04 -0.09 -0.24 -0.34 -0.21 0.08	0/18
S26Q/Q27S/L30F/W56N	0.62 0.90 0.34 0.78 0.55 0.84	1/18 (2.69)
S25D/R34L/W56S/S103G	2.24 1.21 2.28 0.55 1.66 1.04	0/18
K24Q/Y31L/R34H/W56E/H98A/R99Q	0.97 1.13 0.77 0.75 0.82 0.95	1/18 (2.48)
S25L/W56Y	0.31 0.65 0.58 0.71 0.12 0.98	0/18
Y31V/K36A	2.17 1.21 1.00 0.88 0.80 1.41	0/18
K24A/Q27V/S62Q	n.d. n.d. n.d. n.d. 2.48 n.d.	1/18 (2.35)
V29T/R34Y	1.32 n.d. n.d. 2.27 n.d. 2.38	0/18
W56A/H98A	1.02 0.62 0.82 0.50 0.77 1.15	1/18 (2.81)
W56E/L100A	1.23 1.67 n.d. n.d. n.d. 2.24	1/18 (0.56)
W56R/S58T	2.17 1.62 1.68 1.23 1.27 1.62	2/18 (2.17)
S25Y/Q27N/E32D/N35L/W56E/L100M	0.73 0.79 0.32 0.47 0.63 0.81	0/18
N37G/S58N	n.d. 2.07 n.d. n.d. n.d. n.d.	0/18
Q27N/K36T/W56D/Q96L	0.77 1.39 1.10 1.04 0.97 0.98	2/18 (2.73)
L30H/Y97P/S103M	n.d. 2.15 n.d. n.d. n.d. 1.63	1/18 (1.86)
V29N/N37P/T59V/L100E	1.58 0.74 n.d. n.d. n.d. n.d.	0/18
Q27K/S62R	n.d. n.d. n.d. n.d. n.d. n.d.	0/18
K36Q/S38H/Y97P/L100W	n.d. n.d. n.d. n.d. n.d. n.d.	0/18
W56S/T59H/L100E	n.d. 1.57 2.20 n.d. n.d. n.d.	0/18
S25L/Q27P/Y31A/R34D/N35Q/Y97P	3.11 2.23 2.59 1.27 2.34 n.d.	2/18 (2.65)
L30Q/W56N	0.98 0.98 0.95 1.02 1.10 1.74	1/18 (2.72)
Y31D/A57G	0.96 0.67 1.06 0.62 0.64 1.08	0/18
K24A/W56G/S58N	1.25 0.97 1.97 2.42 0.71 2.24	0/18
S25I/R34S	0.62 0.29 0.15 0.91 0.24 0.76	0/18
Y31D/R34S/N37G/S62K/Q96T/L100P	1.61 1.96 1.41 1.24 2.06 1.31	0/18
S26F/V29E/Q96G	n.d. n.d. n.d. n.d. n.d. n.d.	1/18 (2.49)
S25Q/L100T	n.d. n.d. n.d. n.d. n.d. n.d.	0/18
K24S/Q27P/V29E/L30S/W56D	0.07 -0.07 -0.23 -0.31 -0.22 -0.06	0/18
K24M/Q27P/V29K/Y31R/W56S	0.92 0.97 1.61 1.11 1.00 0.90	2/18 (2.36)
S26D/Q95C	n.d. 2.71 n.d. 1.93 n.d. n.d.	1/18 (2.13)

Picked from the list: the 2 lowest averages where every replicate gave a value.

changes,log10 Kd (nM) by replicate,signal with controls
S25A/Q27G/V29D/R34T/W56D,-0.04 -0.09 -0.24 -0.34 -0.21 0.08,0/18
K24S/Q27P/V29E/L30S/W56D,0.07 -0.07 -0.23 -0.31 -0.22 -0.06,0/18

The parent sequence was in this pool as ten entries: three were never detected, three once, and four in most replicates, with averages from 0.34 to 2.37. The range of this assay differs from that of the first round, and the authors advise against merging the two. Nonspecific signal, from three strains lacking the peptide, appeared in 4% of pairings of all light chain designs, centred on 2.64 (5% of these signals below 1.59); values are not corrected for it. The control count says in how many pairings with the empty strains this scFv gave a signal, with their mean in brackets. In the paper, a design with two or fewer of six values counts as a poor binder.

Data: MIT Lincoln Laboratory AlphaSeq set, Li et al. 2023, doi:10.1038/s41467-023-39022-2, as distributed in FLAb.